Measurements published in article PMC2779710 (Journal of medicinal chemistry, 2009).

The chains behind the UniProt entries cited, without tags or fusion partners. Where a name states a change or a piece, a line headed by the entry shows the natural chain unless it says otherwise.
UniProt P30872: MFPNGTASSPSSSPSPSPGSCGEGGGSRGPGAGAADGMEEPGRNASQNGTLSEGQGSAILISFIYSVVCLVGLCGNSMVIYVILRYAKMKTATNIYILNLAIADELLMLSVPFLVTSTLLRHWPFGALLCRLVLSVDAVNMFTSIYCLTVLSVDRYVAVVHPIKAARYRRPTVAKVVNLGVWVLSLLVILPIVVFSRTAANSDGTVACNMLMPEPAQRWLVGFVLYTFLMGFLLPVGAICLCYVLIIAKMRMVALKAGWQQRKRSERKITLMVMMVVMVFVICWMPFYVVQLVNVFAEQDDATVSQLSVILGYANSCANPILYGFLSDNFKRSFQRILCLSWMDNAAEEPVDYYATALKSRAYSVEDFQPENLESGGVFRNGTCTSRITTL
UniProt P30874: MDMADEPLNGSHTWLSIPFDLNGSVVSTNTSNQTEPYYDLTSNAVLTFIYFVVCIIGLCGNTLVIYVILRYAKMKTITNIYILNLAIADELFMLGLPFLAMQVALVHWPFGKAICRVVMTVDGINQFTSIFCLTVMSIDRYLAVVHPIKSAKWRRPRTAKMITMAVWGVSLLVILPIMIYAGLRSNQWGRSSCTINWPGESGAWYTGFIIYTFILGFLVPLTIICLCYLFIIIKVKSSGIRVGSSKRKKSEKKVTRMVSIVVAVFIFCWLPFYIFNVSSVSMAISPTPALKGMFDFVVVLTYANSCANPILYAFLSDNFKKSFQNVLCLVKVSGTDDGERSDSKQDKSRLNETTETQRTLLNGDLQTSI

Columns and labels:
[1] = molecular target: sst1-expressing human cancers (Homo sapiens, UniProt P30872); test: Radioligand autoradiography on tumor tissue sections, binding displaceable by 33
[2] = molecular target: Sst2-expressing tumors (Homo sapiens, UniProt P30874); format: binding; details: 8 cases

## [Leu^8,DTrp^22,^125ITyr^25]SRIF-28 [^125I-[LTT]-SRIF-28]
[1]; Bronchial Carcinoids, 6 cases
  Incidence of binding displaceable by 33: 6/6
[1]; Gastroenteropancreatic Tumors, 4 cases
  Incidence of binding displaceable by 33: 4/4
[1]; Mesenchymal Tumors, 7 cases
  Incidence of binding displaceable by 33: 7/7
[1]; Prostate Cancer, 8 cases
  Incidence of binding displaceable by 33: 8/8
[1]; adjacent sections of sst1 receptor-expressing human prostate cancer
  tumor labeling (total binding): strong tumor labeling
[2]
  Incidence of binding displaceable by 33: 0/8 ^*

Marks after values point to notes of the source that are not given here.
